Reference: patent US12679822B2, “Alkenyl pyrimidine compound, preparation method therefor, and application thereof” (Hongyun Biotech Co., Ltd., priority 2020, dated 2026)

Chains of the proteins cited; added tags and fusions are not shown. Lines headed by an entry give the natural chain unless they say otherwise; changes in a name come on top. A line that says so, or that is headed by a name, gives the form on record, which may keep a tag or linker.
UniProt P00533, whole entry L858R: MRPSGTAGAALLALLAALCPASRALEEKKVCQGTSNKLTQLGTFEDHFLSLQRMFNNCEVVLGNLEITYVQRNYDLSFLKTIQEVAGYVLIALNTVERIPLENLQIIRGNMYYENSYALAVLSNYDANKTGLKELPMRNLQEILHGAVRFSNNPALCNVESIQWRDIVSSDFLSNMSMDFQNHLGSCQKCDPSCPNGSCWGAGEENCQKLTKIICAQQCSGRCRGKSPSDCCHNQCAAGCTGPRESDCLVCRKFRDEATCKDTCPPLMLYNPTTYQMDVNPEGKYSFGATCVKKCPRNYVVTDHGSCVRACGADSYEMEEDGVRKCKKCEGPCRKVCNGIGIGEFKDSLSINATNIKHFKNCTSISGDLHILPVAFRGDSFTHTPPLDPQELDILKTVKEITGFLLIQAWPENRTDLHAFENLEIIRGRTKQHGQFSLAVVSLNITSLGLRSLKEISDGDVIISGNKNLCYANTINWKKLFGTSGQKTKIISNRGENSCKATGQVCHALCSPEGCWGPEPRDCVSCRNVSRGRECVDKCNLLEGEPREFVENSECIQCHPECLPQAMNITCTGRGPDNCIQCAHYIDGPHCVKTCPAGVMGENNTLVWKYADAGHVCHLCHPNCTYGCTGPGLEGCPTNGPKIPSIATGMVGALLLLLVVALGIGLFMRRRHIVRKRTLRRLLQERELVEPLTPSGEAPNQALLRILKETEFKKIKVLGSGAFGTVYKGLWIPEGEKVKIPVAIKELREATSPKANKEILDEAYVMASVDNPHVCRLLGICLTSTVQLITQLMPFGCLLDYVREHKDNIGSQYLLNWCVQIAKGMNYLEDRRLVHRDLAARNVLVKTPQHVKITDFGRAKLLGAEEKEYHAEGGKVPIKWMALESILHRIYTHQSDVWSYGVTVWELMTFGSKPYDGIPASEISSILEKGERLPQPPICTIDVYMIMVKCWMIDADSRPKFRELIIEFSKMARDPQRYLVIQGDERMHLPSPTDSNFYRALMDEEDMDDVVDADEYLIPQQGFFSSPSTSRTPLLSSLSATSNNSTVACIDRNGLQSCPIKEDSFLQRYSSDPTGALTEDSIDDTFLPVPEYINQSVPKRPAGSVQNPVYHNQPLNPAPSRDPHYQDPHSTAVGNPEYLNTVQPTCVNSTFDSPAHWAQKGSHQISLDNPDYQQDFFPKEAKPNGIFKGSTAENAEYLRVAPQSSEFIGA
UniProt P00533, whole entry T790M/L858R: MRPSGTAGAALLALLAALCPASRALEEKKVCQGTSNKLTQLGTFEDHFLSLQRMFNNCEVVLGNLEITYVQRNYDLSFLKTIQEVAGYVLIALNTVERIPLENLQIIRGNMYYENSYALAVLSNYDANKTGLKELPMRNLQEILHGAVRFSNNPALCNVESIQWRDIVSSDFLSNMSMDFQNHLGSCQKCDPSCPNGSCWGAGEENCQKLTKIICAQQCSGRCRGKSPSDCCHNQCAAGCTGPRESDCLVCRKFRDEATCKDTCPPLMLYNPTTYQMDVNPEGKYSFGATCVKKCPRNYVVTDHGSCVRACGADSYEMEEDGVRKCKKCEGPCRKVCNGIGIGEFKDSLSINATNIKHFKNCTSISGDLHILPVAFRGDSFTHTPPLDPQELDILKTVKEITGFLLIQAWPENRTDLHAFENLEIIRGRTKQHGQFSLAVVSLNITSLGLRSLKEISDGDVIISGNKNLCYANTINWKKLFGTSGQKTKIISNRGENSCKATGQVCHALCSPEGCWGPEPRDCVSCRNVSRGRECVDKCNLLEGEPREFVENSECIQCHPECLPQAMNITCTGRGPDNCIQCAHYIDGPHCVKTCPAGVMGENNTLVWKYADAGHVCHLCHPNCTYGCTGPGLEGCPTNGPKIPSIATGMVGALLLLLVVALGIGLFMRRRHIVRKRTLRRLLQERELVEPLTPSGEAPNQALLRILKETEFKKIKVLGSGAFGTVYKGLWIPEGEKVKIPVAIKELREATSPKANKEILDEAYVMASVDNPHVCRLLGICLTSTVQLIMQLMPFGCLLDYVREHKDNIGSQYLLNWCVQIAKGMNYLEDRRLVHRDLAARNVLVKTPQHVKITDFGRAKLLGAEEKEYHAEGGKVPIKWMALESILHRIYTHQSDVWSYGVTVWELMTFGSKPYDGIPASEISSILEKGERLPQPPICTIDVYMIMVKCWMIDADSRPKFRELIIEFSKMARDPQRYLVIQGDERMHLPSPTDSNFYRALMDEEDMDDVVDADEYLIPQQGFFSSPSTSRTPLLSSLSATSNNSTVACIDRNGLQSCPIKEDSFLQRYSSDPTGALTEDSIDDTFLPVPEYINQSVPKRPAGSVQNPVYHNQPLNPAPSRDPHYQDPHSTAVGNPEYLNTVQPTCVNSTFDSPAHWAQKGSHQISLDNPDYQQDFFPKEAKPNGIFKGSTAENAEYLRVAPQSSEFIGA
UniProt P00533, whole entry T790M/C797S/L858R: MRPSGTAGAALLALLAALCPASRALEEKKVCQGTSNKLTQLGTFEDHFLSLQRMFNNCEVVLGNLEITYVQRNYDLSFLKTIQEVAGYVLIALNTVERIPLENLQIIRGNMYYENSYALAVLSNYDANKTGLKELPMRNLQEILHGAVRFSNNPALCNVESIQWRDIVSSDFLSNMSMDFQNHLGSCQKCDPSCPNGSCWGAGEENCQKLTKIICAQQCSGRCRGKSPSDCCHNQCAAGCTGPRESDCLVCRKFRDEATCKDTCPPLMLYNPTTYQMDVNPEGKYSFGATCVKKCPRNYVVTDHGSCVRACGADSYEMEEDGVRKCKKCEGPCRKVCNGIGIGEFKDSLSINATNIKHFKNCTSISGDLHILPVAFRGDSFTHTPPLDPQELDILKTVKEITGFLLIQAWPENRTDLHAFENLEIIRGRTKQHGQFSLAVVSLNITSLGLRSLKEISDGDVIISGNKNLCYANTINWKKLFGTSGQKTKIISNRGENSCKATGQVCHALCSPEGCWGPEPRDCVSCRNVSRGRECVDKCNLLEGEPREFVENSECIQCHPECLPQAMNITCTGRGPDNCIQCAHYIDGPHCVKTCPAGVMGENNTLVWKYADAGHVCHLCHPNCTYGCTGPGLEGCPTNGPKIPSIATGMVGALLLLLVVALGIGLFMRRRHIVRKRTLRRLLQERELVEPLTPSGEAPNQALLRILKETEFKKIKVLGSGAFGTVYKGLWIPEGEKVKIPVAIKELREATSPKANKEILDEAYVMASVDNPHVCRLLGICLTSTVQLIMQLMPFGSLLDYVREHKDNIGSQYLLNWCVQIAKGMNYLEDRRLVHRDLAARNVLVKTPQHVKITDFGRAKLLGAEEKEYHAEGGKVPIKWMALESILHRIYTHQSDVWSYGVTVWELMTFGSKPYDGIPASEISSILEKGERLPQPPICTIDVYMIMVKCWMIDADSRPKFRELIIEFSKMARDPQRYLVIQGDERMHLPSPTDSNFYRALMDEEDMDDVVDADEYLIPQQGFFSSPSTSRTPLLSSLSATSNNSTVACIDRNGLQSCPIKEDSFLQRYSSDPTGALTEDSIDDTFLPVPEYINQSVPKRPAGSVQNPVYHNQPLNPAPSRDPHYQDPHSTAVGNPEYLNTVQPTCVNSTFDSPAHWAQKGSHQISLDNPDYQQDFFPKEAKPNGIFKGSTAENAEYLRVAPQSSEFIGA
UniProt P00533, with tags, fused parts or gaps DEL746-750: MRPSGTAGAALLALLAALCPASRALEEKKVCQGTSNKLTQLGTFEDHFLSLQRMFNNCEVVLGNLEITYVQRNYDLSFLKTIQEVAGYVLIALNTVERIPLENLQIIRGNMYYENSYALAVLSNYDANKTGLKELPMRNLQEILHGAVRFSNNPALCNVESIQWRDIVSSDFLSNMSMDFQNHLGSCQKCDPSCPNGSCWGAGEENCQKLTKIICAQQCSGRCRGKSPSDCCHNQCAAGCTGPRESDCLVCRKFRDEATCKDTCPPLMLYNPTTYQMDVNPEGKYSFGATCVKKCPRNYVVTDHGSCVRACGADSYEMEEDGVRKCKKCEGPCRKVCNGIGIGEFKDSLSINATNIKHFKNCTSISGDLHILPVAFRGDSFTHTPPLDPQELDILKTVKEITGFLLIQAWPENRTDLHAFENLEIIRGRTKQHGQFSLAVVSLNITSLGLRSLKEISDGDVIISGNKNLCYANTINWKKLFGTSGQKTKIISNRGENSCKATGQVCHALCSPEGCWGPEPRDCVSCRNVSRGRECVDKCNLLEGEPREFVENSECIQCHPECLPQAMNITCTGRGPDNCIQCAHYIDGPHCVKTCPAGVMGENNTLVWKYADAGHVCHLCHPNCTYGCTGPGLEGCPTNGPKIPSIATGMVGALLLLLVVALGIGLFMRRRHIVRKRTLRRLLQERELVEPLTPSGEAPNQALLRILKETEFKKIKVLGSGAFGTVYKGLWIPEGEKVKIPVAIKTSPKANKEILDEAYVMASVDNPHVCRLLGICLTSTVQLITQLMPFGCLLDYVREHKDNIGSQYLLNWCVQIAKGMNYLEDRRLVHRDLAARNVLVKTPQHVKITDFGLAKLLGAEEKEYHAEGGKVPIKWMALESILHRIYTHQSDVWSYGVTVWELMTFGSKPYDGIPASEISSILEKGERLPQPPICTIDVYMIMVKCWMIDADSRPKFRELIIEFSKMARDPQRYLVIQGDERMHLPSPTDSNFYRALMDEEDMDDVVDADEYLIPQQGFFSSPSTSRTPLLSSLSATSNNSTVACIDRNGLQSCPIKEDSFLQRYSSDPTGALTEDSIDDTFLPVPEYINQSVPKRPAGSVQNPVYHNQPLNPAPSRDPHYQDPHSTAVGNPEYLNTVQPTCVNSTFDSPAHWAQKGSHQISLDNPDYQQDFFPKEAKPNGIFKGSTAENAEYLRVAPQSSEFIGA
UniProt P00533, with tags, fused parts or gaps DEL746-750/T790M: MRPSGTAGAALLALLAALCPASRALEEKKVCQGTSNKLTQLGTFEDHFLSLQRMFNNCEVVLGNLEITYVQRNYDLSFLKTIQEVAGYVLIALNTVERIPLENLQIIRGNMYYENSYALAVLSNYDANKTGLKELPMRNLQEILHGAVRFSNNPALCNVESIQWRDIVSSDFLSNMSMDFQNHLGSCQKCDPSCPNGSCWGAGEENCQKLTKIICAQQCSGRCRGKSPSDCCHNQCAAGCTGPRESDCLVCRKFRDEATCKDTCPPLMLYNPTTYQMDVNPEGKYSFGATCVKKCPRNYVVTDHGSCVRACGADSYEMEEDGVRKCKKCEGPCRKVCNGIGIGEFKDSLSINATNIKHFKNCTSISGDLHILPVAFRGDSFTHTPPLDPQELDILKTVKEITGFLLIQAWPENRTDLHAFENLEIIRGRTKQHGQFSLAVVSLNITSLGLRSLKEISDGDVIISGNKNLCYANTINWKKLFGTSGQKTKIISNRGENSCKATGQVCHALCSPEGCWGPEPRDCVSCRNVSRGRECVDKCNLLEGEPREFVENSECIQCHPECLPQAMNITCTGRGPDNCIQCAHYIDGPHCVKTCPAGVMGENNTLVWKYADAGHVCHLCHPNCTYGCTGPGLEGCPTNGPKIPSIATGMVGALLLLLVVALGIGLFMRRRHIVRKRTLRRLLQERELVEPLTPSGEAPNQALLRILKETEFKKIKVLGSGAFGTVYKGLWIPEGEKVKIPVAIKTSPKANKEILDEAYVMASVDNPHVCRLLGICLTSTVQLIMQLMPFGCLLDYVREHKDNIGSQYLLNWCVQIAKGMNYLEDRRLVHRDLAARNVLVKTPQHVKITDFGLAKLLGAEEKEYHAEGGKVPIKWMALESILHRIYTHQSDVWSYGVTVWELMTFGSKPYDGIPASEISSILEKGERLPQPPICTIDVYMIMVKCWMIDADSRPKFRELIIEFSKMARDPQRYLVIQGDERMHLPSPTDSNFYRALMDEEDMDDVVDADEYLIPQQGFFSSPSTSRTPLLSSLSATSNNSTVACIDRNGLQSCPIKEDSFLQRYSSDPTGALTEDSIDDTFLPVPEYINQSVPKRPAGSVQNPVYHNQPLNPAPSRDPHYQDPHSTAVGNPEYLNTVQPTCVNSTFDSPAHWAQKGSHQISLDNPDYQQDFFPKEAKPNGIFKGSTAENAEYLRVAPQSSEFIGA

What was measured:
[1] = target: BaF3 cell lines stably transfected with kinase EGFR Del (Homo sapiens, UniProt P00533, cells depend on it, form not given); test: Growth inhibition of BaF3 cell line stably transfected with kinase EGFR Del (MTS); conditions: read-out: growth inhibitory activity IC50, Del, 48 h
Protocol: (§1) Biological Activity Assay: Growth Inhibitory Activity of Compounds on Cell Lines Stably Transfected with Kinase
(§2) The activity of compounds against various mutants of kinase EGFR was evaluated by their effect of inhibiting growth of BaF3 cell lines stably transfected with kinase. The specific test method was given as follows:
(§3) 1) Culture medium: DMEM (Dulbecco's modified eagle medium) or RPMI 1640 (containing 10% fetal bovine serum, 100 μg/mL ampicillin, 100 μg/mL streptomycin).
(§4) 2) Reagent: MTS reaction solution (containing 2 mg/mL of MTS [3-(4,5-di methylthiazol-2-yl)-5-(3-carboxymethoxyphenyl)-2-(4-sulfophenyl)-2H-tetrazolium, inner Salt]; 100 μg/mL of PES (phenazine […])).
(§5) 3) Compound test: cells were incubated into a 96-well culture plate, the volume of cytosol was 90 μL, and then 10 μL of the compound at each gradient concentration was added. That is, the highest concentration was 10 μM, which was diluted stepwise by ⅓, and 8 concentration points were set in total; 0.1% DMSO (dimethyl sulfoxide) was contained in the system. The cell plate with uniformly mixed compound was cultured in a cell culture incubator (37° C.; 5% […]) for 48 h, then 20 μL of MTS reaction solution was added, uniformly mixed and incubated in the cell culture incubator (37° C.; 5% CO2) for 1-4 h; OD values at 490 nm were measured by a microplate reader (VARIOSKAN FLASH, Thermo). Two parallels were set in each group of experiments, with 0.1% (a final concentration) DMSO as a negative control, and a culture medium without cells and compounds as a blank control. The cell growth inhibition rate was calculated by the following formula: Cell growth inhibition rate %=1−(ODexperimental group−ODblank group)/(ODnegative group−ODblank group)×100%.
(§6) 4) IC50 calculation: The semi-inhibitory concentration of the compounds acting on cells was calculated using GradPad Prism 5 software according to the measured cell growth inhibition rate.

[2] = target: BaF3 cell lines stably transfected with kinase EGFR L858R (Homo sapiens, UniProt P00533, L858R, cells depend on it); test: Growth inhibition of BaF3 cell line stably transfected with kinase EGFR L858R (MTS); conditions: read-out: growth inhibitory activity IC50, L858R, 48 h
Protocol: as §1, §2, §3, §4, §5, §6

[3] = target: BaF3 cell lines stably transfected with kinase EGFR Del/T790M (Homo sapiens, UniProt P00533, T790M, cells depend on it, form not given); test: Growth inhibition of BaF3 cell line stably transfected with kinase EGFR Del/T790M (MTS); conditions: read-out: growth inhibitory activity IC50, Del/T790M, 48 h
Protocol: as §1, §2, §3, §4, §5, §6

[4] = target: BaF3 cell lines stably transfected with kinase EGFR L858R/T790M (Homo sapiens, UniProt P00533, T790M/L858R, cells depend on it); test: Growth inhibition of BaF3 cell line stably transfected with kinase EGFR L858R/T790M (MTS); conditions: read-out: growth inhibitory activity IC50, L858R/T790M, 48 h
Protocol: as §1, §2, §3, §4, §5, §6

[5] = target: BaF3 cell lines stably transfected with kinase EGFR Del/T790M/C797S (Homo sapiens, UniProt P00533, T790M/C797S, cells depend on it, form not given); test: Growth inhibition of BaF3 cell line stably transfected with kinase EGFR Del/T790M/C797S (MTS); conditions: read-out: growth inhibitory activity IC50, Del/T790M/C797S, 48 h
Protocol: as §1, §2, §3, §4, §5, §6

[6] = target: BaF3 cell lines stably transfected with kinase EGFR L858R/T790M/C797S (Homo sapiens, UniProt P00533, T790M/C797S/L858R, cells depend on it); test: Growth inhibition of BaF3 cell line stably transfected with kinase EGFR L858R/T790M/C797S (MTS); conditions: read-out: growth inhibitory activity IC50, L858R/T790M/C797S, 48 h
Protocol: as §1, §2, §3, §4, §5, §6

SMILES | GI50 [1] [µM] | GI50 [2] [µM] | GI50 [3] [µM] | GI50 [4] [µM] | GI50 [5] [µM] | GI50 [6] [µM]
C=C(C)c1cnc(Nc2cc(CC)c(N3CCC(N4CCN(C)CC4)CC3)nc2OC)nc1Nc1ccc2nccnc2c1P(C)(C)=O | < 0.05 | < 0.05 | < 0.05 | < 0.05 | < 0.05 | < 0.05
C=Cc1cnc(Nc2cn[nH]c2)nc1Nc1ccc2nccnc2c1N(C)S(C)(=O)=O | 0.05 to 0.5 | 0.05 to 0.5 | 0.05 to 0.5 | 0.05 to 0.5 | 0.05 to 0.5 | 0.05 to 0.5
C=Cc1cnc(Nc2cc(CC)c(N3CCC(N4CCN(C)CC4)CC3)cc2OC)nc1Nc1ccc2nccnc2c1N(C)S(=O)(=O)C(C)C | 0.05 to 0.5 | 0.05 to 0.5 | 0.05 to 0.5 | 0.05 to 0.5 | 0.05 to 0.5 | 0.05 to 0.5
C=Cc1cnc(Nc2ccc(N3CCC(N4CCN(C)CC4)CC3)cc2OC)nc1Nc1ccc2nccnc2c1NS(C)(=O)=O | 0.05 to 0.5 | 0.05 to 0.5 | 0.05 to 0.5 | 0.05 to 0.5 | 0.5 to 2.5 | 0.05 to 0.5
C=Cc1cnc(Nc2cc(C3CCN(C)CC3)ccc2OC)nc1Nc1ccc2nccnc2c1P(C)(C)=O | < 0.05 | < 0.05 | < 0.05 | 0.05 to 0.5 | 0.05 to 0.5 | < 0.05
C=C(C)c1cnc(Nc2cc(CC)c(N3CCC(N4CCN(C)CC4)CC3)nc2OC)nc1Nc1ccc2nccnc2c1N(C)S(C)(=O)=O | < 0.05 | < 0.05 | < 0.05 | < 0.05 | 0.05 to 0.5 | 0.05 to 0.5
